Results from published antibiotic growth screens (doi:10.1038/s41589-023-01349-8).
This is one part of the list.

system: A. baumannii ATCC 17978; experiment: relative growth (fraction of control); higher = less inhibition; conditions: 50 µM

SMILES	relative growth
O=C(C[C@@H]1C=C[C@@H](NC(=O)c2ccncc2)[C@H](CO)O1)NCc1ccncn1	1.12
O=C(NCC(O)CO)c1c(I)c(C(=O)NCC(O)CO)c(I)c(N(CCO)C(=O)CO)c1I (stereo not drawn)	1.11
CCC(=O)c1c(O)cc(O)cc1O	1.14
CCc1c(C)[nH]c2c1C(=O)C(CN1CCOCC1)CC2.Cl (stereo not drawn)	0.935
C[C@@H](O)/C=C/c1cccc[n+]1C	1.16
Cc1n[nH]c(=O)nc1NCCCOC(C)C	0.905
CCOc1ccnc2c1c(=O)n(CC(N)=O)c(=O)n2C	1.22
CNC(=O)C[C@@H]1CC[C@@H]2[C@H](COC[C@H](O)CN2C(=O)c2ccccn2)O1	0.862
CN(C)C(=O)C[C@@H]1CC[C@H](NC(=O)C2CCOCC2)[C@@H](CO)O1	0.989
COc1ccc(S(=O)(=O)N(C)C[C@H]2Oc3cc(C#CC4CCCC4)ccc3S(=O)(=O)N([C@@H](C)CO)C[C@@H]2C)cc1	1.09
COCN(C#N)c1nc(N(C)C)nc(N(C)C)n1	0.933
FC(F)(Cl)C(F)(F)Cl	1.03
NCCC(=O)N1c2ccccc2Sc2ccccc21	0.949
Cc1ccc(S[C@]2(C(=O)NCCCN(C)C)CC(=O)N(Cc3ccccc3C(F)(F)F)[C@@H]2c2ccc(CO)cc2)cc1	1.01
C[C@H](CO)N1C[C@H](C)[C@@H](CN(C)Cc2ccc(Oc3ccccc3)cc2)Oc2cc(-c3ccncc3)ccc2S1(=O)=O	1.34
CC1Cc2ccccc2N1NC(=O)c1ccc(Cl)c(S(N)(=O)=O)c1 (stereo not drawn)	0.899
COCC#Cc1ccc2c(c1)O[C@H](CN(C)Cc1ccc(F)cc1)[C@H](C)CN([C@H](C)CO)S2(=O)=O	0.715
O=C(C[C@@H]1C=C[C@H](NC(=O)CN2CCOCC2)[C@H](CO)O1)NCc1cccc(F)c1	1.12
O=S(=O)([O-])c1cc(I)c(O)c2ncccc12.[Na+]	0.343
O=C(O)c1cncnc1N1CCCC1	0.966
CCOn1c(=O)c(=O)n(OC)c2ccccc21	1.03
COCC(=O)N(C)C[C@H]1Oc2cc(C#Cc3ccccc3)ccc2S(=O)(=O)N([C@H](C)CO)C[C@H]1C	0.903

SMILES	relative growth
O[C@@H]1[C@@H](O)[C@H](Nc2ccccc2)OC[C@H]1O	0.881
COCC#Cc1ccc2c(c1)O[C@H](CN(C)C(=O)c1ccccc1F)[C@H](C)CN([C@@H](C)CO)S2(=O)=O	1.06
Cc1ccccc1NC(=O)C[C@H]1NCCNC1=O	0.954
CCCOc1c(-c2ccc3ccccc3n2)cnc2ccccc12	0.82
CO[C@@H]1CN(C)C(=O)c2ccc(NS(C)(=O)=O)cc2OC[C@@H](C)N(C(=O)C2CCOCC2)C[C@@H]1C	0.892
CC(=O)OCC(=O)[C@@]1(O)CCC2C3CCC4=CC(=O)CC[C@]4(C)[C@@]3(F)[C@@H](O)C[C@@]21C (stereo partly drawn)	0.994
CC(C)(C)OC(=O)N1CC2(CNC(=O)O2)C1	1.1
O=C(N[C@H]1CC[C@H](CCNS(=O)(=O)c2ccc(F)cc2)O[C@@H]1CO)C1CC1	1.05
O=C1O[C@@H](c2ccccc2)[C@@H](c2ccccc2)N2[C@@H](c3ccc(O)cc3)[C@]3(C(=O)Nc4ccc(C#CCCO)cc43)[C@@H](C(=O)NC[C@H](O)c3ccccc3)[C@H]12	0.989
Cl.Clc1ccc(Cn2c(CN3CCCC3)nc3ccccc32)cc1	0.794
Cc1cc(CC(=O)O)n(C)c1C(=O)c1ccc(Cl)cc1	1.03
COc1ccc(N2C[C@H](C(N)=O)CC2=O)cc1	0.897
COCC#Cc1ccc2c(c1)O[C@H](CN(C)C(=O)CN(C)C)[C@@H](C)CN([C@@H](C)CO)S2(=O)=O	0.973
C=CCC[C@H](Cc1ccc(F)cc1)C(=O)O[C@H](CNC(=O)[C@@H](CC=C)CC(=O)N[C@H](CO)Cc1ccccc1)c1ccccc1	1.12
COc1ccc([C@@H](N)c2ccncc2)cc1	1.07
CCOc1ccc(S(=O)(=O)[O-])c2cccnc12.[Na+]	0.964
COc1c(O)cccc1O	1
O=C(C[C@H]1C=C[C@H](NC(=O)c2cccnc2)[C@H](CO)O1)NCCN1CCCCC1	1.05
O=C(C[C@H]1CC[C@H](NS(=O)(=O)c2ccc(F)cc2)[C@H](CO)O1)N1CCC(Cc2ccccc2)CC1	0.949
O=C(O)C[C@@H]1C=C[C@@H](NC(=O)c2ccncc2)[C@H](CO)O1	1.09
CC(=O)Nc1ncc([N+](=O)[O-])s1	0.705
O=C(C[C@H]1C=C[C@H](NS(=O)(=O)c2ccc(F)cc2)[C@@H](CO)O1)N1CCC(Cc2ccccc2)CC1	0.637

SMILES	relative growth
C[C@@H]1CN([C@@H](C)CO)S(=O)(=O)c2ccc(C#Cc3cccc(F)c3)cc2O[C@H]1CN(C)C(=O)CN1CCOCC1	0.662
O=C(O)C(O)C(O)C(O)C(O)C(=O)O (stereo not drawn)	0.912
CCOC(=O)c1cccc(N)c1.CS(=O)(=O)O	1.26
CC(C)NC(=O)N[C@@H]1C=C[C@H](CC(=O)O)O[C@H]1CO	0.931
CSc1nc(=O)c(C)n[nH]1	1.01
COc1c2ccoc2nc2c(OC)c(OCC(O)C(C)(C)O)ccc12 (stereo not drawn)	0.958
CC(C)C[C@@H]1NC(=O)[C@@H]2C[C@H](C(=O)NCCCCCCN(C)C)[C@H](c3cccc(OCCO)c3)N2C1=O	1
COC(=O)Cc1c(C)[nH]c(=S)[nH]c1=O	0.972
CCCC#Cc1cnc2c(c1)C(=O)N([C@@H](C)CO)C[C@@H](C)[C@H](CN(C)S(=O)(=O)c1cccc(OC)c1)O2	0.73
COC(CNC(=O)C1CCN(S(=O)(=O)c2cccc3nsnc23)CC1)OC	1.17
OC[C@H]1O[C@@H](O[C@H]2[C@H](O)[C@@H](O)[C@@H](O)O[C@@H]2CO)[C@H](O)[C@@H](O)[C@@H]1O	1.02
NC[C@H](c1cccs1)N1CCCCCC1	0.893
COc1cccc(NC(=O)N[C@H]2CC[C@H](CC(=O)N3CCOCC3)O[C@@H]2CO)c1	0.942
CC[C@H]1OC(=O)[C@H](C)[C@@H](O[C@H]2C[C@@](C)(OC)[C@@H](O)[C@H](C)O2)[C@H](C)[C@@H](O[C@@H]2O[C@H](C)C[C@H](N(C)C)[C@H]2O)[C@](C)(O)C[C@@H](C)/C(=N\OCOCCOC)[C@H](C)[C@@H](O)[C@]1(C)O	0.198
CC/C=C\C/C=C\C/C=C\C/C=C\C/C=C\CCCC(=O)OCC [OMEGA-3-ACID ESTERS (EPA shown)]	1.06
CCOC(=O)C(=O)N(C)CC(OC)OC	0.925
CSc1scc(-c2cc(Cl)cc(Cl)c2)c1C#N	1.11
c1ccc(Nc2ncnc3cc(-c4ccccc4)sc23)cc1	1.05
O=C(O)CCCN=C1NC(=O)CC(=O)N1	0.999
Cc1c(OCC(F)(F)F)ccnc1CS(=O)c1nc2ccccc2[nH]1 (stereo not drawn)	1.1
Nc1nc(=O)c2nc(CNc3ccc(C(=O)N[C@@H](CCC(=O)O)C(=O)O)cc3)cnc2[nH]1	0.996
CCC(=O)O[C@H]1[C@H](O[C@@H]2[C@@H](C)[C@H](O[C@H]3C[C@@](C)(OC)[C@@H](O)[C@H](C)O3)[C@@H](C)C(=O)O[C@H](CC)[C@@](C)(O)[C@H](O)[C@@H](C)C(=O)[C@H](C)C[C@@]2(C)O)O[C@H](C)C[C@@H]1N(C)C.CCCCCCCCCCCCOS(=O)(=O)O	0.898

SMILES	relative growth
C[C@H](CO)N1C[C@H](C)[C@@H](CN(C)C(=O)c2ccc3c(c2)OCO3)Oc2cc(-c3cncnc3)ccc2S1(=O)=O	1.04
COc1cccc(NC(=O)N(C)C[C@H]2Oc3ncc(Br)cc3C(=O)N([C@H](C)CO)C[C@H]2C)c1	1.09
C=CC[C@@H](CC(=O)N(CCO)Cc1ccccc1)C(=O)N[C@@H](COC(=O)[C@H](CC=C)Cc1ccc(F)cc1)Cc1c[nH]c2ccccc12	1.16
CC(=O)N[C@@H](CC(C)C)C(=O)O	1.08
Cc1ccccc1C(=O)Nc1ccc(C(=O)N2CCC[C@@H](O)c3cc(Cl)ccc32)c(C)c1	1.21
COC(=O)CC1(N)CCCCC1	0.998
COCC#Cc1ccc2c(c1)O[C@@H](CN(C)S(=O)(=O)c1cccc(OC)c1)[C@@H](C)CN([C@H](C)CO)S2(=O)=O	0.864
Cn1nnnc1SCC1=C(C(=O)[O-])N2C(=O)C(NC(=O)C(O)c3ccccc3)C2SC1.[Na+] (stereo not drawn)	1
NC[C@@H]1CC[C@@H](N)[C@@H](O[C@H]2[C@H](O)[C@@H](O[C@H]3O[C@H](CO)[C@@H](O)[C@H](N)[C@H]3O)[C@H](N)C[C@@H]2N)O1	1.09
CN1CCN(C(=O)C[C@@H]2CC[C@@H]3[C@H](COC[C@H](O)CN3Cc3ccc4c(c3)OCO4)O2)CC1	0.984
Cl.N=C(N)NC(=O)c1nc(Cl)c(N)nc1N	1.04
CCCNC(=O)Cc1nnc[nH]1	1.17
COc1cc(C)c(/C=C/C=C/C=C/C=C/C(=O)O)c(C)c1C	1.13
CCOC(=O)COc1ccc(-c2nn[nH]n2)cc1	1.07
CC(C)NC(=O)Cn1ccc([N+](=O)[O-])n1	1.04
COCC(=O)Nc1ccc2c(c1)OC[C@H](C)N(Cc1cccc(F)c1)C[C@@H](C)[C@@H](OC)CN(C)C2=O	1.04
NCC[C@@H]1CC[C@@H](NC(=O)c2ccccc2F)[C@H](CO)O1	1
O=C(c1ccc(Cl)cc1)c1coc2c1cc(O)c1ccccc12	1.21
C[C@H](CO)N1C[C@H](C)[C@@H](CN(C)S(=O)(=O)c2cn(C)cn2)Oc2cc(C#Cc3ccc(F)cc3)ccc2S1(=O)=O	0.88
Nc1nnc(SCC(=O)NC[C@H]2CCCO2)[nH]1	0.998
O=C(C[C@@H]1CC[C@@H]2[C@H](COC[C@H](O)CN2S(=O)(=O)c2cccc(Cl)c2)O1)NCc1ccncn1	0.886
O=C(C[C@H]1C=C[C@H](NC(=O)c2ccc(F)cc2)[C@H](CO)O1)NCc1ccncn1	1.2
